According to patent US10927075B2, “Compositions and methods relating to the treatment of cancer, autoimmune disease, and neurodegenerative disease” (THE JACKSON LABORATORY, priority 2014, dated 2021):

Conditions: single and multiple dose

| SMILES | side effect |
| --- | --- |
| CC(=O)Nc1ccc(/C=C/c2ccc(NC(=S)NC(C)C)cc2S(=O)(=O)O)c(S(=O)(=O)O)c1 [C-1523, (E)-5-acetamido-2-(4-(3-isopropylthioureido)-2-sulfonatostyryl)benzenesulfonate] | some B-cell reduction being the only (and predicted) side effect |
| CC(=O)Nc1ccc(/C=C/c2ccc(NC(=S)NC(C)C)cc2S(N)(=O)=O)c(S(N)(=O)=O)c1 [C-1523-1a, (E)-N-(4-(4-(3-isopropylthioureido)-2-sulfamoylstyryl)-3-sulfamoylphenyl)acetamide] | some B-cell reduction being the only (and predicted) side effect |
